# Measured values taken from patent US6908919B2, “Substituted polycyclic aryl and heteroaryl pyrazinones useful for selective inhibition of the coagulation cascade” (Pharmacia Corporation, priority 1999, dated 2005).
# Columns and labels:
# [1] = target: T1, Human thrombin (Homo sapiens, UniProt P00734); assay: biochemical; conditions: read-out: % Inhibition Thrombin II at 100 μM
# [2] = target: T1, Human thrombin
SMILES,inhibition at 100 µM [1] [%],% Inhibition Thrombin II (30 µM) [2] [%]
N=C(N)c1ccc(S(=O)(=O)NCCn2c(-c3cccc(N)c3)c(Cl)nc(NC3CCC3)c2=O)cc1 [Example 137],4,–
NC1=NCCSc2cc(CNC(=O)Cn3c(-c4cccc(N)c4)c(Cl)nc(NC4CCC4)c3=O)ccc21 [Example 154],–,2
